Source: paper PMC4609575 (The international journal of biochemistry & cell biology, 2010)
Read-outs that look alike come from different tables or passages of the source.

The chains behind the UniProt entries cited, without tags or fusion partners. Residues count along the entry.
UniProt P30926, 22-498: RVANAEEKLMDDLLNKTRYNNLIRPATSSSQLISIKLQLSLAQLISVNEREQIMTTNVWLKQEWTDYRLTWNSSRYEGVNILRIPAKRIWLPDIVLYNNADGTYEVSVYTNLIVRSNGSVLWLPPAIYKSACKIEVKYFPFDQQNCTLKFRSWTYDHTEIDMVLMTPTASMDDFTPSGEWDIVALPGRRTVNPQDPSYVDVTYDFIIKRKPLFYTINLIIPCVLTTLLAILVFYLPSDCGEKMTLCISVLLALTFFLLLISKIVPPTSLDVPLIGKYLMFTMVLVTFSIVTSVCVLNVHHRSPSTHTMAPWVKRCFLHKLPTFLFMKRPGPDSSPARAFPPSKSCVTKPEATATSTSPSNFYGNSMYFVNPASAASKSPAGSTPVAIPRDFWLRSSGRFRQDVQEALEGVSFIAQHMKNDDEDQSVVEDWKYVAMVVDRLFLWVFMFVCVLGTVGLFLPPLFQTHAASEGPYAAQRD
UniProt P32297, 32-505: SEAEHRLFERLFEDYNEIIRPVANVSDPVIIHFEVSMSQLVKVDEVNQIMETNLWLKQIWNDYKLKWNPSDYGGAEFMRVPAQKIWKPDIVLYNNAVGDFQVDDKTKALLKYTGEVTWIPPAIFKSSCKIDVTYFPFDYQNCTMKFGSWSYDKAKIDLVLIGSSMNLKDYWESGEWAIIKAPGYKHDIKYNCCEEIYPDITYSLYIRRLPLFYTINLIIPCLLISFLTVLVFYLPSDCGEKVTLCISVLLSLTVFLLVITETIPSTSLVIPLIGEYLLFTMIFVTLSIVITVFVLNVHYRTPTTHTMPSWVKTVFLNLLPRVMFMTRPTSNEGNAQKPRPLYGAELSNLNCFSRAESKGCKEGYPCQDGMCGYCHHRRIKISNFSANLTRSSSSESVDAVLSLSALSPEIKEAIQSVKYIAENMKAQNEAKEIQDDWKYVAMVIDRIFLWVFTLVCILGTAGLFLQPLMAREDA

How the values were obtained:
hα3β4 AChR [1] = biological target: T1, hα3β4 AChR (Homo sapiens, UniProt P30926+P32297); experiment: Equilibrium binding of [3H]ibogaine to hα3β4 AChR membranes; settings: resting (no ligand) state, Rosenthal-Scatchard plot
hα3β4 AChR [2] = biological target: T1, hα3β4 AChR; format: binding; settings: Desensitized state (1 µM (−)-nicotine), radioligand [3H]ibogaine 20 nM
hα3β4 AChR [3] = biological target: T1, hα3β4 AChR; format: binding; settings: Desensitized state (1 µM (−)-nicotine), radioligand [3H]TCP 40 nM
hα3β4 AChR [4] = biological target: T1, hα3β4 AChR; experiment: Binding kinetics by non-linear chromatography on the CMAC-hα3β4 AChR column

## 7-ethyl-6,2,7,8,9,10,12,13-octahydro-2-methoxy-6,9-methano 5H-pyrido(1′,2′:1,2-azepine (4,5-)indole) [Ibogaine]
hα3β4 AChR [1]
  Kd: ~500 nM
hα3β4 AChR [2]
  IC50: 370 ± 40 nM
hα3β4 AChR [3]
  IC50: 3600 ± 500 nM
hα3β4 AChR [4]
  Ka (association constant): 3.84 ± 0.04 µM⁻¹
hα3β4 AChR [4]; from kinetic results, non-linear chromatography
  Kd = 1/Ka: ~ 0.3 µM
